According to patent publication US6541486B1, “Bis-benzimidazole compounds and analogs thereof for inhibiting cell death” (Elan Pharma International Ltd., priority 1999, dated 2003):

tested on: Oxygen/Glucose Deprived RGCs (retinal ganglion cells); experiment: Protection of oxygen/glucose deprived (OGD) retinal ganglion cells, EC50; conditions: Rattus norvegicus, read-out: EC50 (concentration at which 50% of cells are protected from cell death relative to control)

| Compound | pEC50 |
| --- | --- |
| c1ccc2[nH]c(CC3=NCCN3)nc2c1 [SNX 978, 2-(4,5-dihydroimidazol-2-yl)methyl benzimidazole] | 10.52 |
| NC(c1ncc[nH]1)c1ncc[nH]1 [SNX 949, 2,2′-(aminomethylene)bisimidazole] | 9.72 |
| O=[N+]([O-])Cc1nc2ccccc2[nH]1 [SNX 953, 2-(nitromethyl)benzimidazole] | 9.40 |
| O=C(c1ncc[nH]1)c1ncc[nH]1 [SNX 951, di(imidazol-2-yl)methanone] | 9.68 |
| N#CCc1nc2ccccc2[nH]1 [SNX 914, 2-(cyanomethyl)benzimidazole] | 7.74 |

same assay, conditions: read-out: EC50 (concentration at which 50% of cells are protected from cell death relative to control); OGD RGCs; compound from 30 min prior to OGD, during OGD and 24 and 48 h after

| Compound | pEC50 |
| --- | --- |
| Cc1nc(-c2nc(C)c(C)[nH]2)[nH]c1C [SNX 939, 2,2′-bis(4,5-dimethylimidazole)] | 8.42 |

pEC50: −log10 of the molar value.
